# Measured affinities in a library of Ab-14 light chain variants

Reference: Engelhart et al. 2022, doi:10.1038/s41597-022-01779-4. File: FLAb, binding data.

Antigen: PDVDLGDISGINAS, a 14-residue peptide of the SARS-CoV-2 spike HR2 region.

Parent scFv Ab-14: VH joined to VL by three GGGGS repeats. Changes lie in the light chain CDRs alone.
VH: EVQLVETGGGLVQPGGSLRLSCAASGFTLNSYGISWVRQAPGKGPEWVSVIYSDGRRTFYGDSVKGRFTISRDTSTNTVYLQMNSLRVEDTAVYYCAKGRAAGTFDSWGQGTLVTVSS
VL: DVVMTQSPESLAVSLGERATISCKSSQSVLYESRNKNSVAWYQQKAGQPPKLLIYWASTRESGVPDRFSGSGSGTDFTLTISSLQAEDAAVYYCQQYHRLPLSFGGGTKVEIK

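The starting antibody came from a phage panning campaign against this peptide. The library (AAYL50) carries one to three amino acid substitutions per variant, with no insertions or deletions. Affinity was read by AlphaSeq, a pooled yeast mating assay with surface-displayed partners. Mating (16 h, 30 °C) was followed by selection of diploids and sequencing of their barcodes. Each replicate has its own calibration line, from reference interactions of the BCL2 family. Mating was done three times.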

Changes read parent residue, position, new residue, counted from the first residue of the VL shown. Numbers give log10(Kd / nM), so 0 is 1 nM and 3 is 1 µM. Smaller is tighter. The mean shown is taken over the replicates in which the pair was detected. A pair that was not seen in any replicate is written "not detected"; this usually means weak binding, but a binder can also be missed. Nonspecific signal, from three strains lacking the peptide, appeared in 18% of pairings of library AAYL50, centred on 4.19 (5% of these signals below 2.99); values are not corrected for it. For reference, the parent read 0.65 as the reference entry and 1.68 as a member of this library.

| log10 Kd (nM), mean | replicates with signal | changes |
|---|---|---|
| 1.21 | 3/3 | R34P K36P Q95N |
| not detected | 0/3 | S38L V39Y L100Y |
| not detected | 0/3 | S25Y K36V T59P |
| not detected | 0/3 | S26Y V29Y S58L |
| not detected | 0/3 | Y31C S33K T59I |
| 1.56 | 3/3 | L30W N37T |
| 3.80 | 1/3 | S33V R60D H98W |
| 2.95 | 3/3 | K36F E61Q Y97W |
| 4.59 | 3/3 | L30Q R99G L100V |
| 4.41 | 2/3 | S28I E32A S58E |
| 2.99 | 3/3 | S28C A57E R99E |
| 3.28 | 1/3 | E32T R60F Q96V |
| 5.01 | 1/3 | V29N S38I S58W |
| 1.20 | 3/3 | Y31T K36N H98F |
| not detected | 0/3 | K24N Y97M R99K |
| 1.32 | 1/3 | Q27F S58W H98E |
| not detected | 0/3 | V39M A40T L100M |
| 4.70 | 2/3 | S25F L30V A57W |
| 4.84 | 3/3 | Y31G N37D V39P |
| 0.99 | 3/3 | Q27I L30P |
| 2.92 | 3/3 | Q27R L30C K36W |
| 1.16 | 3/3 | W56H H98L L102Y |
| not detected | 0/3 | E32F R34D T59M |
| not detected | 0/3 | S25R A57P L100F |
| not detected | 0/3 | S58Y L100R |
| 1.58 | 3/3 | K24F E32S S58T |
| -0.19 | 3/3 | K24S S25I W56K |
| 4.81 | 2/3 | A40Y A57V T59R |
| 3.71 | 1/3 | V29Y P101S |
| not detected | 0/3 | K24N E32P Y97M |
| 1.70 | 3/3 | S26R R99Y S103M |
| 3.24 | 3/3 | Y31T W56V H98Q |
| 3.86 | 3/3 | S28H N37W S62N |
| 3.32 | 3/3 | E32I S33D R34W |
| 4.72 | 3/3 | V29A W56C Y97Q |
| 1.80 | 3/3 | T59W S62F H98G |
| not detected | 0/3 | K24T Y31R A40F |
| not detected | 0/3 | Q96C H98T |
| 4.44 | 2/3 | S25G S38V Q96T |
| 5.36 | 2/3 | R34V V39F Q95N |
| 1.87 | 3/3 | S25N V29H S103L |
| 1.61 | 3/3 | Q27P R34I V39M |
| 5.00 | 2/3 | S25I A40Q R99T |
| not detected | 0/3 | N37V P101A L102E |
| not detected | 0/3 | V39A Y97A L100S |
| 1.70 | 3/3 | W56F E61G H98S |
| not detected | 0/3 | N35G P101T S103Q |
| 0.41 | 3/3 | S28H W56Y |
| not detected | 0/3 | A40N Y97I P101M |
| not detected | 0/3 | S38R Q95N S103L |
| 3.75 | 3/3 | V39M R60I |
| not detected | 0/3 | N37A S38Y Y97P |
| 4.80 | 1/3 | S33C R34I S38A |
| 1.29 | 3/3 | S26F L30A Y31E |
| 3.53 | 1/3 | Q27W Y31I Q95E |
| 4.90 | 3/3 | E61L Q95K L102S |
| not detected | 0/3 | K24F T59R Q96P |
| 4.01 | 3/3 | N35F R60T R99S |
| 2.17 | 3/3 | S26Y N37Y S58F |
| not detected | 0/3 | E32Y N35T A40D |
| 1.36 | 3/3 | S28R N35D Q96I |
| 2.58 | 3/3 | S26R W56Y Q96L |
| 1.65 | 3/3 | R60K Q95E L102E |
| 0.74 | 3/3 | S25E S28P |

The opening 9 entries, copied out:

| changes | log10 Kd (nM), mean | replicates with signal |
|---|---|---|
| R34P K36P Q95N | 1.21 | 3/3 |
| S38L V39Y L100Y | not detected | 0/3 |
| S25Y K36V T59P | not detected | 0/3 |
| S26Y V29Y S58L | not detected | 0/3 |
| Y31C S33K T59I | not detected | 0/3 |
| L30W N37T | 1.56 | 3/3 |
| S33V R60D H98W | 3.80 | 1/3 |
| K36F E61Q Y97W | 2.95 | 3/3 |
| L30Q R99G L100V | 4.59 | 3/3 |